Target: mGlu1 receptors (Rattus norvegicus, UniProt P23385)
Test: PI hydrolysis
Assay type: cell-based

Chains of the proteins cited; added tags and fusions are not shown. Residues count along the entry.
UniProt P23385, 19-1199: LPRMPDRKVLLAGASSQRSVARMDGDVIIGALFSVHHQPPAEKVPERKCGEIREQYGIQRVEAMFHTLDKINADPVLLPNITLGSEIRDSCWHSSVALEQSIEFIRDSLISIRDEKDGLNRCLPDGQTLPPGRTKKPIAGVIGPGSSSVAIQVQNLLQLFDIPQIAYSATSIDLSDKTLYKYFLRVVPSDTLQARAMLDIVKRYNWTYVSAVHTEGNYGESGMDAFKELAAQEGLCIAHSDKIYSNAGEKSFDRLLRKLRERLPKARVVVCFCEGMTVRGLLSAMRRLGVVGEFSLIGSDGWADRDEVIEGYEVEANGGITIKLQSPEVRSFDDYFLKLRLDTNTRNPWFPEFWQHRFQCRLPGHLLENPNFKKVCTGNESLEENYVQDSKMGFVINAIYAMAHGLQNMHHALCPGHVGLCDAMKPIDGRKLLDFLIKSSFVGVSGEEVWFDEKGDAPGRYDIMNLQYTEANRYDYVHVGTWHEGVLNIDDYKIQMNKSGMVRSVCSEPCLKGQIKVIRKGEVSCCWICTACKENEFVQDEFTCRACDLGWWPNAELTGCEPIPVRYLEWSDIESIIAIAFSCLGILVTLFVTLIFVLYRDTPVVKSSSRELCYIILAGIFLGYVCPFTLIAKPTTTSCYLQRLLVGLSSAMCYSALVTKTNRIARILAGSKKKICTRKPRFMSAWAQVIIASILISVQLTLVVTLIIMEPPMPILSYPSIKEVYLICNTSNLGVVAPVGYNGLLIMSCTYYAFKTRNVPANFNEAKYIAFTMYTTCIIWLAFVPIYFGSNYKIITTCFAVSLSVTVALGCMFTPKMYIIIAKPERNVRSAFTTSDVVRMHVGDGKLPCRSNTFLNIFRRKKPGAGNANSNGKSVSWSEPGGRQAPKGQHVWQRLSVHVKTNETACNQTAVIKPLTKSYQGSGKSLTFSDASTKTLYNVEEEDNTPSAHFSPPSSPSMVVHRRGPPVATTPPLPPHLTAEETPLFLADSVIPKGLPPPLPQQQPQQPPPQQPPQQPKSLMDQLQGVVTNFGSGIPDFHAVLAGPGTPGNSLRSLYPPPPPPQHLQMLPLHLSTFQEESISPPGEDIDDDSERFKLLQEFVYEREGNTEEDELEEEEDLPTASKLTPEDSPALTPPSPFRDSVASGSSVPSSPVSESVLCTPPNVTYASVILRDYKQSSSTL

N[C@@H](Cn1oc(=O)[nH]c1=O)C(=O)O [Quisqualate, quisqualate]
EC50: 440 nM
